Data reported in PMC3646813.
Substitutions are numbered along the chain they refer to. Numbers in names are those of the source.

B1: N-ethylmaleimide-sensitive factor (NSF), wild type, P18708 P211A (protein)
chain: MAGRSMQAARCPTDELSLSNCAVVSEKDYQSGQHVIVRTSPNHKYIFTLRTHPSVVPGSVAFSLPQRKWAGLSIGQEIEVALYSFDKAKQCIGTMTIEIDFLQKKNIDSNPYDTDKMAAEFIQQFNNQAFSVGQQLVFSFNDKLFGLLVKDIEAMDPSILKGEPASGKRQKIEVGLVVGNSQVAFEKAENSSLNLIGKAKTKENRQSIINADWNFEKMGIGGLDKEFSDIFRRAFASRVFPPEIVEQMGCKHVKGILLYGPPGCGKTLLARQIGKMLNAREPKVVNGPEILNKYVGESEANIRKLFADAEEEQRRLGANSGLHIIIFDEIDAICKQRGSMAGSTGVHDTVVNQLLSKIDGVEQLNNILVIGMTNRPDLIDEALLRPGRLEVKMEIGLPDEKGRLQILHIHTARMRGHQLLSADVDIKELAVETKNFSGAELEGLVRAAQSTAMNRHIKASTKVEVDMEKAESLQVTRGDFLASLENDIKPAFGTNQEDYASYIMNGIIKWGDPVTRVLDDGELLVQQTKNSDRTPLVSVLLEGPPHSGKTALAAKIAEESNFPFIKICSPDKMIGFSETAKCQAMKKIFDDAYKSQLSCVVVDDIERLLDYVPIGPRFSNLVLQALLVLLKKAPPQGRKLLIIGTTSRKDVLQEMEMLNAFSTTIHVPNIATGEQLLEALELLGNFKDKERTTIAQQVKGKKVWIGIKKLLMLIEMSLQMDPEYRVRKFLALLREEGASPLDFD
B2: N-ethylmaleimide-sensitive factor (NSF), wild type, P18708 W213A (protein)
chain: B1 chain with A211P, W213A
B3: N-ethylmaleimide-sensitive factor (NSF), wild type, P18708 E203A (protein)
chain: B1 chain with E203A, A211P
B4: N-ethylmaleimide-sensitive factor (NSF), wild type, P18708 F215A (protein)
chain: B1 chain with A211P, F215A
B5: N-ethylmaleimide-sensitive factor (NSF), wild type, P18708 S207A (protein)
chain: B1 chain with S207A, A211P
B6: N-ethylmaleimide-sensitive factor (NSF), wild type, P18708 M218A (protein)
chain: B1 chain with A211P, M218A
B7: N-ethylmaleimide-sensitive factor (NSF), wild type, P18708 K217A (protein)
chain: B1 chain with A211P, K217A

Biological target: MBP-SNARE/α-SNAP complex, P63045;P32851;P60881;P81125
Experiment: pull-down with amylose magnetic beads, SDS-PAGE, densitometry (ImageJ)
Conditions: chain shown with the change, ADP-AlFx state, parent: est. 1.0, read off a plot

Binder	ratio to parent
B1	0.34
B2	0.43
B3	0.73
B4	0.54
B5	1
B6	0.68
B7	0.57
